The values below come from patent publication US9708370B2, “Azapeptides as CD36 binding compounds” (VALORISATION-RECHERCHE, LIMITED PARTNERSHIP, priority 2007, dated 2017).

Amino acid sequences for entries named in this document (tags omitted). A change or cut given only in a name is not applied to a line headed by its entry.
UniProt Q92847, whole entry: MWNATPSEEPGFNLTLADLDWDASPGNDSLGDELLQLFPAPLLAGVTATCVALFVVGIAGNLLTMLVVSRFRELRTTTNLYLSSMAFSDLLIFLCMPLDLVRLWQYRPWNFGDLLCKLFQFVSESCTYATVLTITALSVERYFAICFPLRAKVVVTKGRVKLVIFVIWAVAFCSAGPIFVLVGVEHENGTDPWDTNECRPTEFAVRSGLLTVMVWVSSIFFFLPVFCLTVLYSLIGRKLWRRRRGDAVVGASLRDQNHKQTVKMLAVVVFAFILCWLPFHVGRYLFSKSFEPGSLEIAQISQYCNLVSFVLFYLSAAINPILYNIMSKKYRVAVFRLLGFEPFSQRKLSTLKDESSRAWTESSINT
UniProt Q07969: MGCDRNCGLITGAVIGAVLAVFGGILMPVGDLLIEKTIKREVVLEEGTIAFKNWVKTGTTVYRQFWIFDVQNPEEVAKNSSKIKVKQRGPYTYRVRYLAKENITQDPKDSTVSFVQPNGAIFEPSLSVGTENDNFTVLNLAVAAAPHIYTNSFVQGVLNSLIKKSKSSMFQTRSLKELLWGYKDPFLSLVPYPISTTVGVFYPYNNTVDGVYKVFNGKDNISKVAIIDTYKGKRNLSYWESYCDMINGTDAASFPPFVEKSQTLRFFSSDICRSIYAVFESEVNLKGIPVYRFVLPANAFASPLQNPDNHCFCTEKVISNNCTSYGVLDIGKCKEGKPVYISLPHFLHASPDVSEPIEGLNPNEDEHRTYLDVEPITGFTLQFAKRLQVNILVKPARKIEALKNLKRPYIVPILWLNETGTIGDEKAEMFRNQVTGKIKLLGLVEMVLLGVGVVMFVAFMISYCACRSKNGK

Read-outs that look alike come from different tables or passages of the source.

In assay [1] the target is human GHS-R1a (Homo sapiens (Human), UniProt Q92847). As to the kind of experiment: GHS-R1a binding assay, competition with 125I-ghrelin on membranes of LLC-PK1 cells expressing human GHS-R1a. As to the method: Rat ghrelin was radio iodinated with Na^125I using the lodo-Beads iodination reagent (Pierce #28665). Briefly, an lodo-bead was incubated with 2 mCi of Na^125I (Amersham) in 100 μL of 50 mM sodium phosphate buffer, pH 7.0 for 5 min at 22° C. The reaction was started by adding 20 nmol of the peptide (1 mM in 0.1 M acetic acid). The tube was incubated for 10 min at 22° C. The iodination was terminated by adding 1 mL of 0.1% TFA. The mono-iodinated peptide was purified by reverse-phase HPLC using a Vydac C18 ([…]) column (30 cm×0.39 cm) in combination with a binary elution system of (A) 0.1% TFA in H2O and (B) 0.1% TFA, 10% H2O, 90% acetonitrile. Fractions of 0.5 mL were collected and analyzed by its radioactive content.
Cells (1.4×10^6) were plated in 100 mm plates and transfected 24 h later with pCDNA3.1-hGHS-R1a (UMR cDNA Resource Center #GHSR0A0000) following the CaHPO4 precipitation method. Briefly, 40 μg of plasmid DNA was diluted in 500 μL of sterile H2O and added to an equal volume of a 4× CaCl2, pH 7.9 solution (2 mM Tris-HCl, 0.2 mM EDTA, 500 mM CaCl2). The mixture was then added slowly with air bubbles to 1 mL of 2× Hepes-buffered saline, pH 7.1 (50 mM Hepes, 280 mM NaCl, 1.5 mM Na2HPO4). After 30 min at room temperature, 1 mL was distributed evenly over the cells and let overnight. The medium was changed the next morning and the membrane preparation was made two days later.
Cells were washed twice with PBS and once with ice-cold homogenization buffer (50 mM Tris-HCl, pH 7.3, 5 mM MgCl2, 2.5 mM EDTA, 30 μg/ml bacitracin). Cells were scraped and harvested in 1.5 mL tubes. […] Total protein concentrations were determined with the BCA protein assay kit (Pierce).
Competition experiments were performed by incubating 50 μg of LLC-PK1 membranes expressing human GHS-R1a with 15 fmol of ^125I-Ghrelin and increasing concentrations of unlabeled ghrelin or with increasing concentrations of azapeptides derivatives in 0.5 mL of binding buffer. […] Filters were counted in a LKB gamma counter. Curves were analyzed using Prism software (GraphPad Software Inc).

Assay [2] deals with CD36 (Rattus norvegicus (Rat), UniProt Q07969). In words: CD36 receptor covalent photolabelling binding assay, competition with [125I]Tyr-Bpa-Ala-hexarelin on rat cardiac membranes. The note with it: Table 3, [125I]Tyr-Bpa-Ala-hexarelin as radioligand, read-out: IC50, binding affinity of aza peptide derivatives towards CD36. As for the experimental part: The hearts from Sprague Dawley rats (300 g-325 g) from Charles River, used as a source of cardiac membranes, were prepared as follows: the heart was washed with ice-cold saline, and fatty and connective tissue was removed. The tissue was cut into small pieces with scissors and placed in a Sorvall centrifuge tube containing 5 ml/g of fresh tissue of Buffer A (10 mM NaHCO3, 5 mM NaN3, 10 μM Pefabloc, 0.1 μM Aprotinin, 1 μM Pepstatin A, 1 μM Leupeptin, pH 7.0). The suspension was homogenized with a Polytron at low speed, 3×15 sec. The homogenate was centrifuged at 8 700×g for 20 min and the supernatant was put on ice. […] Protein concentration was determined with bicinchoninic acid (BCA) method, using BSA as standard. […]
Nonspecific binding was defined as binding not displaced by 50 μM corresponding peptide. […] The gels resulting from SDS/PAGE were fixed, colored in Coomassie Brilliant Blue R-250, dried, exposed to a storage phosphor intensifying screen (Amersham Biosciences), and analysed by using a Typhoon PhosphorImager (Amersham Biosciences) and ImageQuant 5.0 software to establish competition curves. Protein bands were quantified by densitometry. The covalent binding signal of 87 kDa was analyzed by densitometry using Typhoon Phospholmager™ (Typhoon, Amersham Biosciences) and ImageQuant 5.0® software to set competition curves. […]

[3] abbreviates: Table 4, LLCPK-1 membranes overexpressing GHS-R1a, radioiodinated (1-28) rat ghrelin as tracer, read-out: EC50 (text: IC50 values from competition curves in GHS-R1a radioreceptor assay).

The IC50 is the concentration needed to halve the response being measured. Regarding `C[C@H](N)C(=O)N[C@H](Cc1c[nH]c2ccccc12)C(=O)NNC(=O)N[C@@H](Cc1c[nH]c2ccccc12)C(=O)N[C@H](Cc1ccccc1)C(=O)N[C@@H](CCCCN)C(N)=O` [CP-2A(v), Ala-D-Trp-azaGly-Trp-D-Phe-Lys-NH2], in assay [1] (Table 5, read-out: IC50 Binding GHS-R1a), the IC50 stood at 568 nM.
In the case of `C[C@H](NC(=O)N(Cc1ccc(O)cc1)NC(=O)[C@@H](N)Cc1cnc[nH]1)C(=O)N[C@@H](Cc1c[nH]c2ccccc12)C(=O)N[C@H](Cc1ccccc1)C(=O)N[C@@H](CCCCN)C(N)=O` [DBG175p, His-azaTyr-Ala-Trp-D-Phe-Lys-NH2], the IC50 in assay [2] came out at 1.8 µM.
On to `NCCCC[C@H](NC(=O)[C@@H](Cc1ccccc1)NC(=O)[C@H](Cc1c[nH]c2ccccc12)NC(=O)NNC(=O)[C@@H](Cc1c[nH]c2ccccc12)NC(=O)[C@@H](N)Cc1cnc[nH]1)C(N)=O` [DBG188p, His-D-Trp-azaGly-Trp-D-Phe-Lys-NH2], for which the IC50 in assay [1] (setting [3]) is 808 nM.
Take `C[C@H](NC(=O)N(CCc1ccccc1)NC(=O)[C@@H](N)Cc1cnc[nH]1)C(=O)N[C@@H](Cc1c[nH]c2ccccc12)C(=O)N[C@H](Cc1ccccc1)C(=O)N[C@@H](CCCCN)C(N)=O` [DBG253-11, His-azahomoPhe-Ala-Trp-D-Phe-Lys-NH2]: the half-inhibitory concentration (IC50) was 36.8 µM in assay [2] and 729 nM in assay [1] (setting [3]).
